Experimental data: PubChem BioAssay AID504803 (The Scripps Research Institute Molecular Screening Center, 2011)
The entries are a selection whose mix differs from that of the whole data set. The source made the active and inactive calls. Cut-off read from the data, not from the text of the source: active = inhibition above about 36%; inactive = the rest.

The chains behind the UniProt entries cited, without tags or fusion partners.
UniProt Q92743, whole entry: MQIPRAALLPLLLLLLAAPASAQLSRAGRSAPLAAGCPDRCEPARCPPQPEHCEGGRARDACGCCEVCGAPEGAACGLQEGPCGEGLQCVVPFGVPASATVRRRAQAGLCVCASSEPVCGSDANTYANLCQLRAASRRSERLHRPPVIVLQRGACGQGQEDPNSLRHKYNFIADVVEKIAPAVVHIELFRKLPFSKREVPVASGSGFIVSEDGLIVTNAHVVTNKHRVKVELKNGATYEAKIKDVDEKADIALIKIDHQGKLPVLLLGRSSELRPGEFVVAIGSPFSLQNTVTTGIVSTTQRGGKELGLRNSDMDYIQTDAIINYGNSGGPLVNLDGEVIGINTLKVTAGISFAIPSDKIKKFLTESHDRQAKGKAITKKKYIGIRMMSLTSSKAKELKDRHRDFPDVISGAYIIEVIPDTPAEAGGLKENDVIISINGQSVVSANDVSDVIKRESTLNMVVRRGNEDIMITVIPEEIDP

Target: Serine protease HTRA1 (Homo sapiens) (UniProt Q92743)
Experiment: HTRA1 serine protease inhibitors, primary screen, biochemical, fluorescence polarization, HTS (AID 504803);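 note: 0% = enzyme with DMSO and 100% = wells lacking enzyme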
Conditions: recombinant HTRA1, FP-rhodamine activity-based probe, at 5.96 µM, hits give high values

Compound	inhibition
CCCCOc1ccc(C(=O)NCC2(N3CCOCC3)CCCCC2)cc1	inactive: -1.82%
O=P1(N(CCCl)CCCl)SCCCS1	inactive: -3.25%
O=C(NCC1(N2CCCCC2)CCCCC1)c1ccc(F)cc1	inactive: 1.83%
CCOC(=O)N1CCC(Nc2ccc(F)cc2)CC1	inactive: 3.38%
COc1ccc(NC2CCN(CCc3ccccc3)CC2)c(OC)c1	inactive: 9.61%
CCOc1ccc(C)cc1CN(CCCl)CCCl	inactive: 7.46%
O=C1CCN(Cc2ccccc2)CC1	inactive: -7.72%
CCOC(=O)N1CCC(Nc2cccc(C)c2)CC1	inactive: -0.36%
COc1cc(C(=O)NCC2(N(C)C)CCCCC2)ccc1OC(F)F	inactive: 9.09%
CSc1ccccc1C(=O)NCC1(N2CCCCC2)CCCCC1	inactive: -1.99%
Cc1cccc(NC2(C#N)CCN(Cc3ccccc3)CC2)c1	inactive: 5.72%
O=C(NCC1(N2CCCCC2)CCCCC1)c1ccc(=O)[nH]c1	inactive: 1.79%
O=C(NCC1(N2CCCCC2)CCCCC1)c1cccs1	inactive: -0.31%
COc1ccc(C(=O)NCC2(N3CCCCC3)CCCCC2)cc1	inactive: -2.81%
COc1ccc(C(=O)NCC2(N3CCCCC3)CCCCC2)c(OC)c1OC	inactive: -1.46%
CC(C)(C)OC(=O)N1CCC(N(C(=O)c2ccccc2)c2ccc(F)cc2)CC1	inactive: -5.32%
CCOC(=O)N1CCC(Nc2ccc(OC)cc2)CC1	inactive: 4.24%
N#CC1(Nc2ccccc2)CCN(Cc2ccccc2)CC1	inactive: 8.06%
O=C(NCC1(N2CCCCC2)CCCCC1)c1ccc(Cl)s1	inactive: -3.77%
O=C(OC1CN2CCC1CC2)C1c2ccccc2Oc2ccccc21 (stereo not given)	inactive: 4.38%
COc1ccc(Cl)cc1C(=O)NCC1(N2CCOCC2)CCCCC1	inactive: -3.15%
O=C(NCC1(N2CCOCC2)CCCCC1)c1cc2ccccc2o1	inactive: -13.3%
O=C(NCC1(N2CCCCC2)CCCCC1)c1ccc(Cl)nc1	inactive: 0.62%
Cc1cc(C)cc(N(C(=O)c2ccccc2)C2CCN(C(=O)OC(C)(C)C)CC2)c1	inactive: -26.5%
COc1cc(OC)c(C(=O)NCC2(N(C)C)CCCCC2)cc1OC	inactive: 5.17%

Compound	inhibition
O=C(NCC1(N2CCOCC2)CCCCC1)c1cc(F)c(F)cc1Cl	inactive: 9.27%
COc1ccc(CN(CCCl)CCCl)cc1Cl	inactive: -3.16%
CN(C)c1cccc(C(=O)NCC2(N3CCCCC3)CCCCC2)c1	inactive: 7.1%
CC(C)c1ccc(NC2CCN(C(=O)OC(C)(C)C)CC2)cc1	inactive: 7.59%
Cc1ccc(C(=O)NCC2(N(C)C)CCCCC2)o1	inactive: 9.5%
CCCOc1ccc(C(=O)NCC2(N(C)C)CCCCC2)cc1OC	inactive: 1.39%
CN1CCC(Nc2cccc(F)c2)CC1	inactive: 0.68%
O=C(NCC1(N2CCCCC2)CCCCC1)c1cncc(Br)c1	inactive: -1.38%
CSc1ccc(C(=O)NCC2(N3CCOCC3)CCCCC2)cc1	inactive: -0.97%
O=C(NCC1(N2CCCCC2)CCCCC1)c1cccc([N+](=O)[O-])c1	inactive: -0.7%
CCN1CCC(Nc2ccc(Cl)cc2)CC1	inactive: 5.9%
N#CC1(Nc2ccccc2)CCN(CCc2ccccc2)CC1	inactive: 6.09%
O=C(NCC1(N2CCCCC2)CCCCC1)c1ccc(OC(F)F)cc1	inactive: -10.2%
COc1ccc(NC2CCN(C(=O)OC(C)(C)C)CC2)cc1	inactive: 2.68%
CC(C)c1ccc(C(=O)NCC2(N3CCOCC3)CCCCC2)cc1	inactive: 0.29%
CN1CCN(CCOC(=O)C(O)(c2ccccc2)c2ccccc2)CC1	inactive: 2.78%
O=C(NCC1(N2CCOCC2)CCCCC1)c1cc(=O)[nH]c2ccccc12	inactive: 1.17%
COc1cc(C(=O)NCC2(N3CCCCC3)CCCCC2)ccc1OC(F)F	inactive: -7.96%
O=C(NCC1(N2CCCCC2)CCCCC1)c1cccc(C(F)(F)F)c1	inactive: 7.01%
CC(C)(C)OC(=O)N1CCC(N(C(=O)c2ccccc2)c2ccc(Cl)cc2)CC1	inactive: -18.4%
N#Cc1ccc(C(=O)NCC2(N3CCCCC3)CCCCC2)cc1	inactive: 3.38%
c1ccc(CN2CCC(Nc3ccccc3)CC2)cc1	inactive: -3.19%
CCCN1CCC(Nc2cc(OC)cc(OC)c2)CC1	inactive: 7.01%
Cc1cc(N(CCCl)CCCl)ccc1C=O	inactive: 1.75%
CN(C)C1(CNC(=O)c2cccc(C#N)c2)CCCCC1	inactive: -11.3%

Compound	inhibition
COc1ccc(C(=O)NCC2(N3CCOCC3)CCCCC2)cc1OC	inactive: -2.4%
O=C(NCC1(N2CCOCC2)CCCCC1)c1cc(Br)ccc1Cl	inactive: 6.12%
COc1cc(C(=O)NCC2(N3CCOCC3)CCCCC2)cc(OC)c1C	inactive: -7.13%
O=C(OC1CN2CCC1CC2)C1c2ccccc2C=Cc2ccccc21 (stereo not given)	inactive: 2.12%
N/C(=N\O)c1c(N)no[n+]1[O-]	inactive: 5.44%
CCOC(=O)N1CCC(Nc2ccc(C)cc2)CC1	inactive: -1.89%
CCCOc1ccc(C(=O)NCC2(N(C)C)CCCCC2)cc1	inactive: -2.92%
CC(C)(C)OC(=O)N1CCC(Nc2ccccc2)CC1	inactive: -3.97%
O=C(O)C1(Nc2ccccc2)CCN(Cc2ccccc2)CC1	inactive: -0.06%
CCOc1ncccc1C(=O)NCC1(N2CCOCC2)CCCCC1	inactive: 0.37%
CN1CCC(Nc2ccc(F)c(Cl)c2)CC1	inactive: -0.12%
CN1CCC(Nc2ccc(Cl)cc2)CC1	inactive: 0.87%
CCC(CO)(C(=O)OC1CN2CCC1CC2)c1ccccc1 (stereo not given)	inactive: 7.31%
COc1cccc(C(=O)N(c2cc(C)cc(C)c2)C2CCN(C(=O)OC(C)(C)C)CC2)c1	inactive: -2%
COc1cc(OC)cc(C(=O)NCC2(N3CCOCC3)CCCCC2)c1	inactive: -0.91%
Cc1ccc(NC2(C#N)CCN(Cc3ccccc3)CC2)cc1	inactive: 3.21%
Cc1ccc(C(=O)NCC2(N3CCCCC3)CCCCC2)o1	inactive: -2.31%
Fc1ccccc1NC1CCN(Cc2ccccc2)CC1	inactive: 2.17%
COc1cc(OC)cc(C(=O)NCC2(N3CCCCC3)CCCCC2)c1	inactive: 5.52%
CC(=O)N(c1ccccc1)C1CCNCC1	inactive: 4.78%
O=C(NCC1(N2CCCCC2)CCCCC1)c1ccco1	inactive: -7.64%
CN(C)c1ccc(C(=O)NCC2(N3CCCCC3)CCCCC2)cc1	inactive: 1.8%
Cn1c(=O)[nH]cc(N(CCCl)CCCl)c1=O	inactive: -0.24%
Cc1ccccc1NC1(C#N)CCN(Cc2ccccc2)CC1	inactive: 3.18%
CCN1CCC(Nc2cccc(F)c2)CC1	inactive: 12%
